Results published in patent US9120780B2, “Indole or indazole derivative or salt thereof” (TAIHO PHARMACEUTICAL CO., LTD., priority 2011, dated 2015).

Assays:
[1] = molecular target: human HSP90 alpha protein (N-terminal, amino acids 2-236) (Homo sapiens (Human), UniProt P07900); test: Measurement of HSP90-binding activity (AlphaScreen competitive assay, biotin-labeled geldanamycin); conditions: inhibition of biotin-labeled geldanamycin binding to purified HSP90; read-out: HSP-binding activity IC50
Experimental: First, a solution of purified HSP90 was prepared as follows. […] The pET-HSP90N was introduced into Escherichia coli cells (BL21 (DE3), Stratagene Inc.), and then the Escherichia coli cells were cultured in the presence of 0.5 mM isopropyl-beta-D-thiogalactopyranoside (Sigma-Aldrich Corp.) at 37° C. for 4 hours. The Escherichia coli cells were collected, suspended in a lysis buffer (50 mM Tris-HCl (pH 7.5), 200 mM NaCl), and sonicated. The sonicated cell solution was centrifuged (40,000×g, 20 minutes) to obtain supernatant as a crude extract. The crude extract was fractionated by Ni Sepharose High Performance (GE Healthcare Japan Corporation) chromatography and HiLoad 26/60 Superdex 75 pg (GE Healthcare Japan Corporation), and the fraction in which HSP90 protein was concentrated was prepared so as to be a 50 mM Tris-HCl (pH 7.5)/20% glycerol solution as a purified HSP90 solution. […]
The HSP90-binding activity was measured by an AlphaScreen competitive assay system. […] After reaction in a dark place at room temperature for 1 hour, the fluorescence intensity in each well was measured with a multilabel plate reader, EnVision (Perkin Elmer, Inc.). The inhibition rate (%) of biotin-labeled geldanamycin binding by a compound of the present invention was determined by the following equation using the fluorescence signal of a test substance-free group (control) as a control. […]

SK-BR-3 cells = test: Measurement of cell growth inhibition (crystal violet staining); type: cell-based; conditions: Homo sapiens, 72 hours culture with test substance
Experimental: Cell growth was measured by a crystal violet staining method. […] The cells were cultured in a 5% CO2 incubator at 37° C. for 24 hours, and then test substances were added to the plate, followed by culturing for further 72 hours. […] The plate was left to stand at room temperature for 20 minutes for staining the cells. The plate was washed with water and dried, and 100 μL of a mixed solution of 0.05 M NaH2PO4 and ethanol (mixture in equal amounts) was added to each well. The absorbance at 540 nm was measured with a microplate reader (MTP-450, Corona Electric Co., Ltd.) as an index of the number of cells in each well. The inhibition rate (%) of cell growth by a compound of the present invention was determined by the following equation using the absorbance of a drug-untreated group (control) as a control. […] Inhibition rate (%)=(C−T)/C×100 T: absorbance in a well to which a test substance was added C: absorbance in a well to which no test substance was added

**Q.** Which results are given for `Cc1cc(C(N)=O)ccc1-n1nc(C(C)C)c2c(-n3cnc(-c4cnn(C)c4)c3)cccc21` [Example 8, 4-(3-Isopropyl-4-(4-(1-methyl-1H-pyrazol-4-yl)-1H-imidazol-1-yl)-1H-indazol-1-yl)-3-methylbenzamide]?
**A.** IC50 [1]: 110 nM; IC50 (SK-BR-3 cells): 110 nM
